Assay results from patent US12240849B2, “Nitrogen-containing spiro derivative as RET inhibitor” (GUANGZHOU BAIYUNSHAN PHARMACEUTICAL HOLDINGS CO., LTD. …, priority 2019, dated 2025).

Protein sequences, listed by entry. Tags and fused reporters are not part of them. Lines headed by an entry give the natural chain unless they say otherwise; changes in a name come on top. Residues count along the entry.
UniProt P07949, 29-1114 limits assumed: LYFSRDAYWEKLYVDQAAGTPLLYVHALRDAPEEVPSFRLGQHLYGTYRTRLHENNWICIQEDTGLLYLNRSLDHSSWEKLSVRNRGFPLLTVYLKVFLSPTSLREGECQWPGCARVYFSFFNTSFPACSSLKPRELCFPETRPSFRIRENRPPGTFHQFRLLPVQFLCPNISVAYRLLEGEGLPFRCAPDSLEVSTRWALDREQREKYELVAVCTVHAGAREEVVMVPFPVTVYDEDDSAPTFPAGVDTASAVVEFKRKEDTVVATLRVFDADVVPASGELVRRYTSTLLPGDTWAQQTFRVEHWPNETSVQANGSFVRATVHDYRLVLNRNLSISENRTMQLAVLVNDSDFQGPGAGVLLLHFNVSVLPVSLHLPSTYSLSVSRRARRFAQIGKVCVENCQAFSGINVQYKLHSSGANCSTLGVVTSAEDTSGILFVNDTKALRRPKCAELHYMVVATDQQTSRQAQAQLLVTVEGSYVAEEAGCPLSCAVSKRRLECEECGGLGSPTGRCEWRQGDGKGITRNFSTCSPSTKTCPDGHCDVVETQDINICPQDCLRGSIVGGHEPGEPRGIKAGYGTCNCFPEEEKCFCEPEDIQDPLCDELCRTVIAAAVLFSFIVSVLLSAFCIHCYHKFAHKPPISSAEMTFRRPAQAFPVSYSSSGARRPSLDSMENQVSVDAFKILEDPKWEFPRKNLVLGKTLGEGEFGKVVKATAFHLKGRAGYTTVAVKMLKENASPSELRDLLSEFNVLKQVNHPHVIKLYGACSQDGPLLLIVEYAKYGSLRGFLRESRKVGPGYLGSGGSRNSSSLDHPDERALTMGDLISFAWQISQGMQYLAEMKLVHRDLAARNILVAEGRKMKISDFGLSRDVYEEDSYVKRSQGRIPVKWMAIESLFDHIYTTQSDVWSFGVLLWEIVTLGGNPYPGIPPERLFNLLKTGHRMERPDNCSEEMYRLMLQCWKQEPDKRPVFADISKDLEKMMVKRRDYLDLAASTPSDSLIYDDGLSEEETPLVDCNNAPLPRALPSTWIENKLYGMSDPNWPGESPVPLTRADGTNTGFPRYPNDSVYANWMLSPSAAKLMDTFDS
UniProt P07949, 29-1114 V804M limits assumed: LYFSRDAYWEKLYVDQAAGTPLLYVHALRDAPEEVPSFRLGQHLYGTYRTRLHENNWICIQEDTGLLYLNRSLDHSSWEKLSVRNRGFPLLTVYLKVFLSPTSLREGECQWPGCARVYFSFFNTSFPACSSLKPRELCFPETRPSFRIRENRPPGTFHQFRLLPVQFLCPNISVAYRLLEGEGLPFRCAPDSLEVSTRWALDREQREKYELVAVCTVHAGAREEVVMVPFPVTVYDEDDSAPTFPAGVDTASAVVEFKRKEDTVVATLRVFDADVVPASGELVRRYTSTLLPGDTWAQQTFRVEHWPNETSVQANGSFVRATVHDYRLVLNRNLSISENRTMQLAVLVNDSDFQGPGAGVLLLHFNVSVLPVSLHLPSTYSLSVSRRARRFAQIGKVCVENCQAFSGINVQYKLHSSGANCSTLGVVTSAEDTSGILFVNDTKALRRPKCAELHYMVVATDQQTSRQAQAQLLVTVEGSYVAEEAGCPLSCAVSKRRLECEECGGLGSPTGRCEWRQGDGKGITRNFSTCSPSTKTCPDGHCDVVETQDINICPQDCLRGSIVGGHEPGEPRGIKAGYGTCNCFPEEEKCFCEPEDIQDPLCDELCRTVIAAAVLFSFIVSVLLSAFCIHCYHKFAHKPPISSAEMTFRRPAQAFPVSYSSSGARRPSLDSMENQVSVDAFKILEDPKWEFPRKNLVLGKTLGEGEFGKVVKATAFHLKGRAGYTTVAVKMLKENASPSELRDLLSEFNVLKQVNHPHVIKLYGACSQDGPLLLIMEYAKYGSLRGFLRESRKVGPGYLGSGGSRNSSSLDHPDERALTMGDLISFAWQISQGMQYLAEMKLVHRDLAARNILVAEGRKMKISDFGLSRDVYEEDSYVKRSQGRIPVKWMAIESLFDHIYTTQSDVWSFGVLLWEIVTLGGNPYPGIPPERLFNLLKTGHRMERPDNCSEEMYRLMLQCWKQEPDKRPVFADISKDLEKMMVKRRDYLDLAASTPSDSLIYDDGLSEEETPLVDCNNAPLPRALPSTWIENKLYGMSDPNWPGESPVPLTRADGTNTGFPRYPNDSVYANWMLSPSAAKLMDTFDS

Legend:
human wild-type RET = human wild-type RET (Homo sapiens, UniProt P07949); experiment: 33P isotope-labeled kinase activity test, wild-type RET; type: biochemical; settings: read-out: IC50 Wild-type, 33P-ATP at Km concentration
V804M mutant RET = V804M mutant RET (Homo sapiens, UniProt P07949, V804M); experiment: 33P isotope-labeled kinase activity test, V804M mutant RET; type: biochemical; settings: read-out: IC50 V804M, 33P-ATP at Km concentration

With `Cc1cc(Nc2cc(C)[nH]n2)nc(N2CCC3(CC2)OCCN(C(C)c2ccc(-n4cc(F)cn4)nc2)C3=O)n1` (centres unmarked) [Compound 018] the pIC50 (human wild-type RET) was 7.15 and the pIC50 (V804M mutant RET) was 7.13.

pIC50: −log10 of the molar value.
